Data: patent publication US8470841B2, “Heterocyclic compounds, processes for their preparation, medicaments comprising these compounds, and the use thereof” (Sanofi, priority 2008, dated 2013)
Read-outs that look alike come from different tables or passages of the source.

Chains of the proteins cited; added tags and fusions are not shown. Residues count along the entry.
UniProt O00763, 151-2458: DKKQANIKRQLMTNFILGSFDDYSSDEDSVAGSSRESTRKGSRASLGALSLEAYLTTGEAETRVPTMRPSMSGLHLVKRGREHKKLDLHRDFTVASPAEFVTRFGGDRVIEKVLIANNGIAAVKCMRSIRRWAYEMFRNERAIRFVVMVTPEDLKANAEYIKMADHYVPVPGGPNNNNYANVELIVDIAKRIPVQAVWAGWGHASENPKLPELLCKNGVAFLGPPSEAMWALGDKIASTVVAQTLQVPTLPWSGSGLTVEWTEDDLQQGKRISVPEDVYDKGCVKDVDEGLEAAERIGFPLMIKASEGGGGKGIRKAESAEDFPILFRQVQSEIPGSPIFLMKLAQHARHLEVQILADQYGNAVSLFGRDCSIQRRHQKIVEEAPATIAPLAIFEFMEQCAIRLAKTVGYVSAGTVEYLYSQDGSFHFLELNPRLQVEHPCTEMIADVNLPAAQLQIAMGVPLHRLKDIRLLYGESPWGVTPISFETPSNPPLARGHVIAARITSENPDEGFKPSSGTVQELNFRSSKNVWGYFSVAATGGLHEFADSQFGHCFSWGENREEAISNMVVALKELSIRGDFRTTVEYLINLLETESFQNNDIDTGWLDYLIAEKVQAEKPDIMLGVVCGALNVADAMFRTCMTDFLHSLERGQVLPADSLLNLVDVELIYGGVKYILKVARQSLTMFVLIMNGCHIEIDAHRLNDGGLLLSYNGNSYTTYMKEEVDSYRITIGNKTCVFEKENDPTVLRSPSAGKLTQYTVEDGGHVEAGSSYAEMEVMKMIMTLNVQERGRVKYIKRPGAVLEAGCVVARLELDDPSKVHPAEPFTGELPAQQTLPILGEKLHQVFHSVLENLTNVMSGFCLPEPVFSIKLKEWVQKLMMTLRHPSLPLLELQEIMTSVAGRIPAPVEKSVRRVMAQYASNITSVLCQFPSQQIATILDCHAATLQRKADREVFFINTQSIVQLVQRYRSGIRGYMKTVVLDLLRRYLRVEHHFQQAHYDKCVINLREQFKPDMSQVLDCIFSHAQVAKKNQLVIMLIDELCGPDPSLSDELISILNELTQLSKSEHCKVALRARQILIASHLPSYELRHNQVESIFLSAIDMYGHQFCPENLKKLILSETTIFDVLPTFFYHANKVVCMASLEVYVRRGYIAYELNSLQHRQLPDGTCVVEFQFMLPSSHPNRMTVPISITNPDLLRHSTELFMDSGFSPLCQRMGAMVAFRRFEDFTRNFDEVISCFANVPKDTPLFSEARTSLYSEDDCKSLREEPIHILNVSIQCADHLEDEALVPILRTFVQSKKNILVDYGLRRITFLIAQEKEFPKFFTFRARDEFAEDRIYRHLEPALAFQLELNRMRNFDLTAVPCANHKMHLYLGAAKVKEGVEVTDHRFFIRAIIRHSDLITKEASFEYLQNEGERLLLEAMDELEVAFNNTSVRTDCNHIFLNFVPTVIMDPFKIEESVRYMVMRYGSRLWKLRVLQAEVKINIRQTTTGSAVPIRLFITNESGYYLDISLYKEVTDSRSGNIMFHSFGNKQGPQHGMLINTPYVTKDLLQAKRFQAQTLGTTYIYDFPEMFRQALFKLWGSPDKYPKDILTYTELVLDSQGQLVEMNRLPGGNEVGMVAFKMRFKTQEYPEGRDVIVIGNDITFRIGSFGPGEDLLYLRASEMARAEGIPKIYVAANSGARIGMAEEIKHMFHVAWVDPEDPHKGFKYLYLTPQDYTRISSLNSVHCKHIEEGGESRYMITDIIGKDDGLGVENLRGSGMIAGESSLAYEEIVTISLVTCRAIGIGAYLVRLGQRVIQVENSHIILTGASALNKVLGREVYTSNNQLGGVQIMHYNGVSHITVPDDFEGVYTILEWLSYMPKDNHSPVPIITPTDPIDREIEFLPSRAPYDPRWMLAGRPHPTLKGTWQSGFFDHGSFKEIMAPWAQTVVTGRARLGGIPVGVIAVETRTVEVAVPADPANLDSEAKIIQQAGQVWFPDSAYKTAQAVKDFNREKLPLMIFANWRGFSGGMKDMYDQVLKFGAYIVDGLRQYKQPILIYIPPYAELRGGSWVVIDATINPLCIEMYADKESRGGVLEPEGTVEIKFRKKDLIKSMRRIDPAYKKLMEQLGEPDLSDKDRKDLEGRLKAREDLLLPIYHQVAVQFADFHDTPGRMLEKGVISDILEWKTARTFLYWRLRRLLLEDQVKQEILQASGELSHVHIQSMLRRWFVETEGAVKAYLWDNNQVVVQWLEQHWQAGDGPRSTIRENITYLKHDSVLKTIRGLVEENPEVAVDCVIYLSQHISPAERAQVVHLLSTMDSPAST

What was measured:
human ACC2 = human ACC2 (Homo sapiens (Human), UniProt O00763); assay type: biochemical
rACC1 = rACC1 (Rattus norvegicus (Rat), UniProt P11497); assay: Enzymatic assay of ACC inhibitors, rat ACC1; assay type: biochemical

Row | IC50 (human ACC2; human ACC2, read-out: IC50 (hACC2)) [nM] | SMILES | IC50 (rACC1) [nM] | IC50 (human ACC2) [nM]
1 | 150 | CC(=O)NC(C)CCc1ccc(Oc2ccc(OC(C)C)cn2)cc1 (stereo not drawn) [Example 10, N-{3-[4-(5-Isopropoxypyridin-2-yloxy)phenyl]-1-methylpropyl}acetamide] |  | 
2 |  | CC(=O)N[C@@H](C)COc1ccc(Oc2ccc(OC(C)C)cc2)cc1 [Example 59, N—{(S)-2-[4-(4-Isopropoxyphenoxy)phenoxy]-1-methylethyl}acetamide, reference compound] | > 10000 | 110
